## Antibody variant affinities, Ab-14 heavy chain, assay B

Target peptide (SARS-CoV-2 spike, HR2 region): PDVDLGDISGINAS

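Phage display of a naive human antibody library on the peptide gave the parent. This is the validation round: designs drawn from the data on random variants, tested in the same kind of assay. Group labels follow the data file (Ctrl: baseline library sampled from a position-specific scoring matrix, with some repeated check sequences; GPLM: also part of the Gaussian process libraries; Gen: genetic algorithm; a sequence that several methods proposed may carry one label only). AlphaSeq pools MATa yeast showing the antibodies with MATalpha yeast showing the peptide. The frequency of each diploid, read from paired DNA barcodes, reflects how well the two displayed proteins bind. Read counts were normalised to the haploid input and turned into Kd by a linear fit to BCL2-family pairs of known affinity, for each replicate. The assay was run in six technical replicates.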

Parent scFv Ab-14: VH joined to VL by a (GGGGS)3 linker. Changes lie in the heavy chain CDRs alone.
VH: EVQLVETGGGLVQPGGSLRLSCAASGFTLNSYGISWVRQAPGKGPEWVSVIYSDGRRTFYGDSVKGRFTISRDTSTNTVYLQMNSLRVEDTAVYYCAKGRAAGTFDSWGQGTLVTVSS
VL: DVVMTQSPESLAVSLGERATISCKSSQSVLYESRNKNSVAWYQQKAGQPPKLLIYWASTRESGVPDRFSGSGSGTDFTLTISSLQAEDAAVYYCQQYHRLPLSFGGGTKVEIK

The parent's heavy chain CDRs are GFTLNSYGIS, VIYSDGRRTFYGDSVK, GRAAGTFDS; each variant's own CDRs replace them letter for letter.
Affinities are written as log10 Kd with Kd in nM; a lower number is a better binder.
Where no diploid with the target was found in that replicate, the entry reads "ND": below detection, most likely a poor binder, though not proof of it.
The parent sequence was in this pool as ten entries: three were never detected, three once, and four in most replicates, with averages from 0.34 to 2.37.
Nonspecific signal, from three strains lacking the peptide, appeared in 1% of pairings of all heavy chain designs, centred on 2.08 (5% of these signals below 0.84); values are not corrected for it. Also given: how often the same scFv was detected with the empty control strains.
The range of this assay differs from that of the first round, and the authors advise against merging the two.
The authors' rule: three or more of the six replicates give a measured affinity, fewer mean a poor binder.
Some sequences occur more than once in the pool; their replicates are listed entry by entry, parted by semicolons.

Variant GFTLNSYGIS, VIYSDGRRTFYSDSVK, ARAAGTFVS [Ctrl] showed -0.27, 0.23, -0.52, -0.55, -0.41, -0.51 (controls 1 of 18).
Variant GFTLNSYGIS, VIYSDGRRTFYGDAVK, GDAAGTFDS [Ctrl] showed 1.80, ND, 2.65, ND, ND, 0.42 (controls 0 of 18).
Variant GFTLNNYGIS, VIYSDGRRTFYGDSVK, GREAGTFDS [Ctrl] showed ND, -0.12, 0.01, -0.30, 0.80, 0.44 (controls 0 of 18).
Variant GFTLNSYGIS, VIYSDGRRTFYGDEVK, GRNAGTFDS [Ctrl] showed ND, 2.15, ND, 2.82, ND, 3.17 (controls 0 of 18).
Variant GFVLASYGIS, VIYSDGRRTFYGDSVK, GDAAGTFDS [Ctrl] showed ND, ND, ND, ND, ND, 2.36 (controls 0 of 18).
Variant GFTLNSYGIS, VIYSDGRRTFYGDSVK, GRHAGVFDT [Ctrl] showed 1.79, ND, ND, ND, ND, ND (controls 0 of 18).
Variant GFSLNSYGIS, VIYSDGRRTFYQDSVK, GREAGTFDS [Ctrl+GPLM_Gen] showed ND, 0.69, 0.19, 0.76, 0.76, 0.75; ND, -0.29, -0.31, 0.07, 0.05, -0.41 (controls 0 of 36).
Variant GFTLNDYGIS, VIYSDGRRTHYGDSVK, VRAAGTFDS [Ctrl] showed ND, ND, ND, ND, ND, ND (controls 0 of 18).
Variant GFALNSYGIS, VIYSDGRRTFYIDSVK, GRAAGQFDS [Ctrl] showed ND, ND, ND, ND, ND, ND (controls 0 of 18).
Variant GFTLDEYGIS, VIYSDGRRTFYSDSVK, GRAAGTFDM [Ctrl] showed ND, ND, ND, ND, ND, 1.79 (controls 0 of 18).
Variant CFKPNSYGIS, VIYSDGRRTFYGDNVV, GRAAGTFDS [Ctrl] showed ND, ND, ND, ND, ND, ND (controls 0 of 18).
Variant GHTLNSYGIS, VIYSDGRRTAYGDSVK, GRAAGTFDS [Ctrl] showed 1.63, 1.21, 1.33, 2.12, 1.11, 1.27 (controls 0 of 18).
Variant PFEVNNYGIS, VIYSDGRRTFYIDSTK, GRAAGTFDS [Ctrl] showed ND, ND, ND, ND, ND, ND (controls 0 of 18).
Variant GFTKNSYGIS, VIYSDGRRTFYGDSVK, GRAAGTFDS [Ctrl] showed ND, ND, ND, ND, ND, ND (controls 1 of 18).
Variant GFTLNEYGIS, VIYSDGRRTFYADSVK, GRAAGTFDS [Ctrl+GPLM_Gen] showed 0.32, 0.16, -0.10, 0.12, 0.14, 0.22; 0.22, -0.41, 0.37, -0.09, -0.14, 0.30 (controls 1 of 36).
Variant GFTLNDYGIS, VIYSDGRRTFYGDSVK, GRAAGTFDM [Ctrl] showed 1.19, 0.61, 0.95, 0.44, 0.76, 1.86 (controls 0 of 18).
Variant GFTLNSYGIS, VIYSDGRRVFYGDSVK, GRAAGTFDS [Ctrl] showed ND, ND, 3.42, 1.45, ND, ND (controls 0 of 18).
Variant GFTLNSYGIS, VIYSDGRRLFYGPSVK, GRLAGTFDS [Ctrl] showed ND, ND, ND, ND, ND, ND (controls 0 of 18).
Variant GFTLNEYGIS, VIYSDGRRTAYSDSVK, GKAAGTFDS [Ctrl] showed -0.13, -0.80, -0.69, -0.92, -0.37, -0.54 (controls 1 of 18).
Variant GYTLNSYGSS, VIYSDGRRTFYGDSVK, GLACGTFDS [Ctrl] showed ND, ND, ND, ND, ND, ND (controls 0 of 18).
Variant GFTLNSYGIS, VIYRDGRRTFYSDSVK, GRAALTFDS [Ctrl] showed ND, ND, ND, ND, ND, ND (controls 0 of 18).
Variant GFTLNSYGIS, VIYSDGRRTAYGDSVA, GRAAGTFDS [Ctrl] showed 1.32, 0.73, 0.79, 0.78, 0.34, 0.82 (controls 1 of 18).
Variant GFTLNSYGIQ, VIYSDGRRTFIGDSVK, GRAPLTFDS [Ctrl] showed ND, ND, ND, ND, ND, ND (controls 0 of 18).
Variant GQTLNSYGIS, VIYSDGRRTFYGDSVK, GRAAGTFDS [Ctrl] showed ND, ND, 1.43, ND, ND, ND (controls 0 of 18).
Variant GFTLASYGIS, VIYSDGRRTFYGDSFK, GKAIGCFIS [Ctrl] showed ND, ND, ND, ND, ND, ND (controls 0 of 18).
Variant GFTLNSYGIS, VIYSDGRRTFYGDSVK, GRTKGTFDS [Ctrl] showed ND, ND, ND, ND, ND, ND (controls 0 of 18).
Variant GFTLDSYGIS, VIYSDGRRVFYGDSVK, GRAAGTFDS [Ctrl] showed ND, ND, 0.60, ND, 1.32, 0.02 (controls 0 of 18).
Variant GCTLNQYGIS, VIYSDGRRTFYGDSVK, GRAAGTGDS [Ctrl] showed ND, ND, ND, ND, ND, ND (controls 0 of 18).
Variant GTTLNSYGIS, VIYSDGRKNFYGDSVK, GRAAGTFDS [Ctrl] showed ND, ND, ND, ND, ND, ND (controls 0 of 18).
Variant GFTFNSYGIS, VIYSDGRRTFYGDSVK, GRLAGTFDS [Ctrl] showed ND, ND, ND, ND, ND, ND (controls 0 of 18).
Variant KFTLNSYGIS, VIYSDGRRTFYTDSVK, GRAAGTFDS [Ctrl] showed 0.93, 1.15, 0.38, 0.92, 0.75, 0.45 (controls 1 of 18).
Variant GFTINSGGIS, VIYSDGKRTFYGDSVK, GRAAGTFDS [Ctrl] showed ND, ND, ND, ND, ND, ND (controls 0 of 18).
Variant GFTLNDYGIS, VIYSDGRRVFYLDSVK, GRASGTFDS [Ctrl] showed ND, ND, ND, ND, 1.90, 2.12 (controls 0 of 18).
Variant GFTLNSYGIS, VIYSDGRRTFYGDSVK, GRATGTFRS [Ctrl] showed ND, ND, ND, ND, ND, ND (controls 0 of 18).
Variant GFTLNEYGIS, VIYSDGRRTFYQDQVK, GRATGTFDS [Ctrl] showed ND, ND, ND, ND, ND, ND (controls 1 of 18).
Variant GFTLNSYGIS, VIYSDGRRTFYHDSVD, GRAAGTFDS [Ctrl] showed 0.79, ND, ND, ND, 1.56, 2.40 (controls 0 of 18).
Variant GFTLNLYGIS, VIYSDGRRTFYQDSVK, GRAAGTFDS [Ctrl] showed 1.48, 1.84, 0.85, 1.74, 1.02, 0.93 (controls 1 of 18).
Variant GFTLNSYGIS, VIYSDGRRTFYGDSVK, EQAAGTFDS [Ctrl] showed 1.33, 1.47, ND, ND, 2.58, 2.06 (controls 0 of 18).
Variant GFTINSYGIS, VIYSDGRRTFYSDSVK, GRAAGLKDS [Ctrl] showed ND, ND, ND, 1.45, ND, ND (controls 0 of 18).
Variant GFNLNSYGGS, VIYSDGRRTFYGDSVK, GREAGTGDS [Ctrl] showed ND, ND, ND, ND, ND, ND (controls 0 of 18).
Variant GLELNEYGIS, VIYSDGRRTFYGDSVK, GTAAGTFDS [Ctrl] showed 0.38, 1.04, 0.37, 0.56, 0.90, 0.75 (controls 0 of 18).
Variant GFTLNSYGIS, VIYSDGMRTAYGDDYK, GRAAGTFDS [Ctrl] showed 1.97, 1.19, 1.50, 1.37, 1.82, 1.85 (controls 1 of 18).
Variant GFALNTYGIS, VIYSDGRRTFYGDSVK, GRAAGTFFS [Ctrl] showed ND, ND, ND, ND, ND, ND (controls 0 of 18).

Data: MIT Lincoln Laboratory AlphaSeq set, Li et al. 2023, doi:10.1038/s41467-023-39022-2, as distributed in FLAb.